Results taken from PubChem BioAssay AID2107 (National Center for Advancing Translational Sciences (NCATS), 2009).
This is a selection; strong and weak results do not stand in their true shares. Activity calls are given as the source filed them. Calls follow the shape of the dose curve; as a rule, active = well fitted inhibition curve with a large enough effect; inconclusive = small, poorly fitted or top-dose-only effect, or effect the other way; inactive = flat fitted curve, though single readings scatter.

Amino acid sequences for entries named in this document (tags omitted). Residues count along the entry.
UniProt P06280, 32-429 limits assumed: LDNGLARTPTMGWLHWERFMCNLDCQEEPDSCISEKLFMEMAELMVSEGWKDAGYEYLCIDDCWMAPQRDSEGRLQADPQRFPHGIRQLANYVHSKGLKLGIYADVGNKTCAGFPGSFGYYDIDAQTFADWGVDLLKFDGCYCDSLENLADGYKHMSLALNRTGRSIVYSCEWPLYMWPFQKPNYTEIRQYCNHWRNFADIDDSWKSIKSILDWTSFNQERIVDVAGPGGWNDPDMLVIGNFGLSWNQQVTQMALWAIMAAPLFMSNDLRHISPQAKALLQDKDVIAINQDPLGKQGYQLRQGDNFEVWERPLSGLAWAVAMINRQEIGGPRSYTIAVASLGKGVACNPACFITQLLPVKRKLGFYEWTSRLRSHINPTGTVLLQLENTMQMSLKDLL

Molecular target: Alpha-galactosidase A (Homo sapiens) (UniProt P06280)
Assay: qHTS Assay for Inhibitors and Activators of Human alpha-Galactosidase From Spleen Homogenate;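 also: 0% = enzyme with vehicle and -100% = no enzyme basal signal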
Details: 4MU-alpha-Gal fluorescence, 40 min; at 80 µM (top of the series) unless noted
Description: NIH Chemical Genomics Center [NCGC] NIH Molecular Libraries Probe Production Centers Network [MLPCN] MLPCN Grant: R03 MH084842-01 Assay Submitter (PI): Wei Zheng NCGC Assay Overview: Alpha-galactosidase is a homodimeric glycoprotein that hydrolyzes the terminal alpha-galactosyl moieties from glycolipids and glycoproteins. Deficiency of this enzyme results in Fabry Disease with progressive accumulation of globotriaosylceramide and other glycosphingolipids in vascular endothelial cells that causes renal failure, myocardial infarction and stroke, and premature death in patients. It has been reported that the improper folding and trafficking of alpha-galactosidase resulting from genetic mutations may account for a significant number of Fabry patients. […] We optimized this alpha-galactosidase assay in 1536-well plate format for identification of novel small molecule inhibitors or activators with structures other than the sugar analogs in order to develop new pharmacological chaperones. In particular, this assay is directed towards discovering compounds active in more natural setting, tissue homogenate, that may have been missed by screens of the purified enzyme under more stringent conditions.
NCGC Assay Protocol Summary: This is a fluorogenic enzyme assay with 4-methylumbelliferyl-alpha-D-galactopyranoside as the substrate and human spleen homogenate containing alpha-galactosidase as the enzyme preparation. Upon hydrolysis of this fluorogenic substrate, the resulting product, 4-methylumbelliferone (which excites at 365 nm and emits at 440 nm) can be detected by a fluorescence plate reader. Data were normalized to the controls for basal activity (without enzyme) and 100% activity (with enzyme). The AC50 values were determined from concentration-response data modeled with the standard Hill equation. Assay buffer: 50 mM citric acid (titrated with potassium phosphate to pH 5.0), 0.01% Tween-20 (pH 5.0 is an optimal condition for this enzyme assay) 1536-well assay protocol for the alpha-galactosidase from human spleen homogenate: (1) Add 2 ul/well spleen homogenate (1 ug) (2) Add 23 nL compounds in DMSO solution. The final titration was 0.5 nM to 58 uM. (3) Add 2 ul of substrate (1 mM final) (4) Incubate at 37C for 40 min (5) Add 2 ul stop solution (1M NaOH and 1M Glycine mixture, pH 10) (6) Detect the assay plate in a ViewLux plate reader (PerkinElmer) with Ex=365 nm and Em=440nm. Keywords: Alpha-galactosidase, Fabry Disease, pharmacological chaperone, chaperone therapy, high throughput screening, alpha- galactosidase inhibitor, MLSMR, MLSCN, NIH Roadmap, qHTS and NCGC

Row | SMILES | activity change, negative = inhibition
1 | C/C1=C2N=C(/C=C3N=C(/C(C)=C4\[N-][C@@](C)([C@H]5N=C1[C@@](C)(CCC(=O)NC[C@H](C)OP(=O)([O-])O[C@@H]1[C@H](O)[C@H](n6cnc7cc(C)c(C)cc76)O[C@@H]1CO)[C@@H]5CC(N)=O)[C@](C)(CC(N)=O)[C@H]4CCC(N)=O)[C@@](C)(CC(N)=O)[C@@H]\3CCC(N)=O)C(C)(C)[C@@H]/2CCC(N)=O.[C-]#N.[Co+3] | inactive: 1.14% [at 29.1 µM]
2 | CCOC(=O)c1ccc(NP(C)(=O)Oc2ccc(Cl)cc2)cc1 (stereo not drawn) | inactive: 3.67%
3 | CP(=O)(OC12CC3CC(CC(C3)C1)C2)OC12CC3CC(CC(C3)C1)C2 | inactive: -1.05%
4 | CN(C)C(=O)c1c([N+](=O)[O-])cc([N+](=O)[O-])cc1[N+](=O)[O-] | inactive: 6.09%
5 | CC(C)(C)c1ccc(OP(C)(=O)O)cc1 | inactive: -1.76%
6 | COc1ccccc1OP(C)(=O)Nc1ccccc1Br (stereo not drawn) | inactive: -3.31%
7 | CP(=O)(Nc1ccc(Cl)cc1)Oc1ccc(F)cc1 (stereo not drawn) | inactive: 5.8%
8 | COc1ccccc1OP(C)(=O)Nc1c(C)n(C)n(-c2ccccc2)c1=O (stereo not drawn) | inactive: -3.64%
9 | O=C(OCCCN1CCCC1)C(O)(c1ccccc1)C1CCCCC1 (stereo not drawn) | inactive: -28.8%
10 | OCCSCCO | inactive: -4.2%
11 | CP(=O)(Oc1ccccc1)N1CCOC1=O (stereo not drawn) | inactive: -1.76%
12 | CCc1ccc(OP(C)(=O)Nc2cccnc2)cc1 (stereo not drawn) | inactive: -1.87%
13 | CCN(CC)CC(O)COC(=O)C(O)(c1ccccc1)C1CCCCC1 (stereo not drawn) | inactive: -6.88%
14 | COc1ccc(OP(C)(=O)Nc2ccc(Br)cc2)cc1 (stereo not drawn) | inactive: 6.43%
15 | CCN(CCCl)Cc1ccccc1C | inactive: 10.8%
16 | Cc1ccccc1NP(C)(=O)Nc1ccccc1C | inactive: -4.87%
17 | [NH4+].[O-][Cl+3]([O-])([O-])[O-] | inactive: 7.43%
18 | CP(=O)(Nc1ccc2c(c1)OCCO2)Oc1ccccc1 (stereo not drawn) | inactive: -8.12%
19 | CCOP(C)(=S)SCC(=O)NC(C)(CC)C(=O)O (stereo not drawn) | inactive: -6.45%

Row | SMILES | activity change, negative = inhibition
20 | CCOP(=O)(CC)OCC | inactive: 0.284%
21 | CP(=O)(Nc1ccc(SC(F)(F)F)cc1)Oc1ccc(F)cc1 (stereo not drawn) | inactive: 1.22%
22 | O=[N+]([O-])c1ccc(OP2(=O)COCCO2)cc1 (stereo not drawn) | inactive: 11%
23 | Cc1c([N+](=O)[O-])cccc1[N+](=O)[O-] | inactive: 2.31%
24 | Cc1ccc([N+](=O)[O-])c([N+](=O)[O-])c1 | inactive: -0.219%
25 | Cc1cc(-c2cccc3ccccc23)c(C)cn1.O=[N+]([O-])c1cc([N+](=O)[O-])c(O)c([N+](=O)[O-])c1 | inactive: -0.0451%
26 | CN(C)CCOC(=O)C(O)(c1ccccc1)C1CCCCC1 (stereo not drawn) | inactive: -7.48%
27 | COc1ccc(NP(C)(=O)Oc2ccccc2OC)cc1 (stereo not drawn) | inactive: 0.0488%
28 | COc1ccc(OP(C)(=O)Nc2cccc(Br)c2)cc1 (stereo not drawn) | inactive: -1.94%
29 | CP(=O)(Nc1ccccc1)Oc1ccc(F)cc1 (stereo not drawn) | inactive: 0.381%
30 | CCCCCOc1ccc(NP(C)(=O)Oc2ccc(Cl)cc2Cl)cc1 (stereo not drawn) | inactive: 6.79%
31 | CCN(CC)CCCOC(=O)C(O)(c1ccccc1)C1CCCCC1 (stereo not drawn) | inactive: -5.37%
32 | CCOC(=O)c1ccc(NP(C)(=O)Oc2ccc(F)cc2)cc1 (stereo not drawn) | inactive: -2.09%
33 | COc1ccc(OP(C)(=O)Nc2ccc(SC(F)(F)F)cc2)cc1 (stereo not drawn) | inactive: -1.81%
34 | CCC(C)(OO)OOC(C)(CC)OO (stereo not drawn) | inactive: 7.63%
35 | Cc1cccc([N+](=O)[O-])c1[N+](=O)[O-] | inactive: 1.5%
36 | O=C(OCCN1CCN(CCOCc2ccccc2)CC1)C(O)(c1ccccc1)c1ccccc1 | inactive: 1.58%
37 | CP(=O)(Nc1ccccc1F)Oc1ccccc1 (stereo not drawn) | inactive: -2.93%
38 | CC(C)c1ccc(OP(C)(=O)Nc2ccc(SC(F)(F)F)cc2)cc1 (stereo not drawn) | inactive: 2.13%
